# Literature values in patent US6231888A, “Local delivery of non steroidal anti inflammatory drugs (NSAIDS) to the colon as a treatment for colonic polyps” (Perio Products Ltd., priority 1998, dated 2001).
# Experiments:
# [1] = tested on: villous adenomas of the cecum; settings: 30 mg weekly
compound,measurement,setting,value
CN1C(C(=O)Nc2ccccn2)=C(O)c2ccccc2S1(=O)=O [piroxicam],Duration of regression,[1],up to 20 months
same,Regression of the premalignant adenomas,[1],dramatic and sustained regression
same,Regression of adenomatous polyps,sporadic colonic polyps,no similar regression of adenomatous polyps
